Measured values published in patent US20230241256A1, “NON-INTUITIVE COMBINATION OF DRUG DELIVERY CARRIERS OF THE SAME DRUG FOR SYNERGISTIC GROWTH DELAY OF SOLID TUMORS” (The Johns Hopkins University, priority 2020, published 2023).

Columns and labels:
[1] = set-up: species or system mice; conditions: mouse, in vivo, iv
Method: Upon tumors reaching 50 mm^3, mice were randomly assigned to a group. […] The total mass of antibody was kept constant at 15 μg/mouse. Every other day, mice were weighed, and tumor volumes were measured with a digital caliper (resolution 0.01 mm).

[2] = tested on: Trastuzumab-resistant BT474-R breast cancer cells; test: Clonogenic (colony) survival, BT474-R; type: cell-based, human; conditions: 6 hour incubation at 37° C.; pH 7.4 or 6.0; monolayers
Method: (§1) FIG. 9A, FIG. 9B, FIG. 9C, and FIG. 9D show colony survival of Trastuzumab-sensitive BT474 (top panel, FIG. 9A and FIG. 9B, 1.50±0.10×10^6 HER2 copies/cell) and Trastuzumab-resistant BT474-R (lower panel, FIG. 9C and FIG. 9D, 0.93±0.04×10^6 HER2 copies/cell) breast cancer cells following a 6 hour incubation at 37° C. with free [^225Ac]Ac-DOTA (gray symbols), tumor-responsive liposomes loaded with [^225Ac]Ac-DOTA (black symbols) and radiolabeled Trastuzumab ([^225Ac]Ac-DOTA-SCN-Ab) (white symbols) at extracellular pH values of 7.4 (FIG. 9A and FIG. 9C) or 6.0 (FIG. 9B and FIG. 9D, as the lowest expected acidic value of the tumor interstitial pHe). Radiolabeled Trastuzumab's specific activity was 2.9 MBq/mg (78.3 μCi/mg) at the highest radioactivity concentration. Cold conditions of liposomes and the antibody are indicated at zero radioactivity concentration. Error bars correspond to standard deviations of repeated measurements (4-6 samples per radioactivity concentration);
(§2) After incubation for 6 hours of cell monolayers with varying concentrations of radioactivity, the cells were washed and were plated in dishes to grow until formation of colonies, as described in detail in Prasad et al., 2021.

[3] = tested on: Trastuzumab-sensitive BT474 breast cancer cells; test: Clonogenic (colony) survival, BT474; type: cell-based, human; conditions: 6 hour incubation at 37° C.; pH 7.4 or 6.0; monolayers
Method: as §1, §2

[4] = tested on: HER2-overexpressing BT474 breast cancer spheroids; test: Spheroid outgrowth assay, BT474; type: cell-based, human; conditions: 100-μm radius; 9.25 kBq/mL total
Method: As an indirect surrogate of tumor recurrence, an outgrowth assay was performed on HER2-overexpressing BT474 breast cancer spheroids, and HER1-moderately expressing MDA-MB-231 triple negative breast cancer spheroids. Spheroids were treated with ^225Ac-DOTA NP, ^225Ac-DOTA-SCN-Ab, or the cocktail containing the combination of ^225Ac-DOTA NP and ^225Ac-DOTA-SCN-Ab (NP+Ab). Upon exposure to treatment (6 and 24 hours for NPs and Abs, respectively, to match their corresponding circulation half-lives in mice), spheroids were plated on adherent surfaces and cells were allowed to grow. The cells were counted when the cells from untreated spheroids reached confluency. The number of live cells was then reported as % outgrowth relative to the counted numbers of cells that received no treatment.
Spheroids were incubated for 6 hours with [^225Ac]Ac-DOTA-loaded liposomes (1-mM total lipid) and/or 24 hours with [^225Ac]Ac-DOTA-SCN-Trsastuzumab (10 μg/mL). Upon completion of incubation, spheroids were transferred to fresh media and the spheroid volume was monitored until the non-treated spheroids stopped growing (17 days later) at which point spheroids were individually plated on cell culture treated, flat-bottom 96-well plates and were allowed to grow. […]

## [^111In]In-DTPA-SCN-Trastuzumab: Trastuzumab radiolabeled with Indium-111, surrogate of the 225Ac-labeled antibody for biodistribution
[1]
  mean tumor uptake of injected radioactivity: significantly greater mean tumor uptake

## [^225Ac]Ac-DOTA-SCN-Trastuzumab: HER2-targeting antibody Trastuzumab radiolabeled with Actinium-225 via p-SCN-Bn-DOTA
[2]
  colony survival response: comparable survival responses
[3]
  colony survival response: comparable survival responses
[4]
  suppression of spheroid outgrowth, small spheroids: most efficient
